# AlphaSeq binding of Ab-14 light chain variants to a spike HR2 peptide

Antigen: PDVDLGDISGINAS, a 14-residue peptide of the SARS-CoV-2 spike HR2 region.

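The parent was found by panning a naive human phage display library on the peptide. This is the validation round: designs drawn from the data on random variants, tested in the same kind of assay. Their group label is 14L_GP_HC (GP: Gaussian process model; HC: hill climbing; a sequence that several methods proposed may carry one label only). In AlphaSeq, yeast of one mating type display the scFv and yeast of the other type display the target. After mating in shaken culture at 30 °C for 16 h, diploids were selected and their barcode pairs sequenced. Scores were corrected for input abundance and mapped to Kd with protein pairs of known affinity run in the same pool. Each pool was mated in six replicate cultures.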

Each scFv is VH, a 15-residue (Gly4Ser)3 linker, VL, as in the parent Ab-14, and differs from it in the CDRs of the light chain only.
VH: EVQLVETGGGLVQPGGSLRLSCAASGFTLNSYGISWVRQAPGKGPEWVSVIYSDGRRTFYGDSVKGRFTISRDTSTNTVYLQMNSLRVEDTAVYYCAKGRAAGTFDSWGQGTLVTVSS
VL: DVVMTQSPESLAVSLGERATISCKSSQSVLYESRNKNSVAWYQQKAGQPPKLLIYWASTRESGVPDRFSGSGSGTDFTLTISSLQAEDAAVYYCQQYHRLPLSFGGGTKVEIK

The whole VL of each variant is written out. Numbers give log10(Kd / nM), so 0 is 1 nM and 3 is 1 µM. Smaller is tighter. A sequence measured in both rounds can read differently, since the two assays cover different ranges. As a blank, each scFv also met three strains without target: over all light chain designs, 4% of these pairings were detected, typically at 2.64 and seldom below 1.59. Also given: how often the same scFv was detected with the empty control strains, with their mean in brackets. In the paper, a design with two or fewer of six values counts as a poor binder.

| VL | log10 Kd (nM) by replicate | empty controls |
|---|---|---|
| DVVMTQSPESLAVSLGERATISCKIPQGVPYESRNKNSVAWYQQKAGQPPKLLIYGASVRESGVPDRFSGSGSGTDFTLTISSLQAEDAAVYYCQQYHRLPLSFGGGTKVEIK | 0.25 -0.10 -0.02 -0.26 0.12 0.06 | 1/18 (3.05) |
| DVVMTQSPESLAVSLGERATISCHLSDSVLYESRNKNSVAWYQQKAGQPPKLLIYNASTRESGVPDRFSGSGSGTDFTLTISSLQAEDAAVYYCQQYHRLPLSFGGGTKVEIK | -0.21 -0.42 -0.42 -0.67 -0.36 -0.25 | 3/18 (3.04) |
| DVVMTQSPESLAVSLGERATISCKFSQSVLFQSRNKNSVAWYQQKAGQPPKLLIYDASTRESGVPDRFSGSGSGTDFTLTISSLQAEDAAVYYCQQYHRLPLSFGGGTKVEIK | -0.15 -0.30 -0.28 -0.24 -0.30 -0.17 | 0/18 |
| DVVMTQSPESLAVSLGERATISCKSSGSYHYESRNKNSVAWYQQKAGQPPKLLIYGASTRESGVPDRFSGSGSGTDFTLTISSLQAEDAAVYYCQQYHRLPLSFGGGTKVEIK | 0.15 0.15 -0.05 -0.14 0.05 0.27 | 1/18 (2.97) |
| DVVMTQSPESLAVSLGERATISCKVGQGVLYESRNKNSVAWYQQKAGQPPKLLIYGASQRCSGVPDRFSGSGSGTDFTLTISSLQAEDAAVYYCQQYHRLPLSFGGGTKVEIK | 0.05 -0.11 -0.35 -0.22 -0.17 0.02 | 0/18 |
| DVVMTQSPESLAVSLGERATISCKLEQSVLYESRNKNSVAWYQQKAGQPPKLLIYHASTREDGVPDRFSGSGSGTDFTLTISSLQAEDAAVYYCQQYHQLPLSFGGGTKVEIK | 0.07 0.00 0.12 -0.13 0.09 -0.02 | 1/18 (2.72) |
| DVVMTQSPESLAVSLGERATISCKYYQSGLYESRNKNSVAWYQQKAGQPPKLLIYQASTRESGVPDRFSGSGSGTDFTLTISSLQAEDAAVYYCQQYHLLPLSFGGGTKVEIK | 0.60 0.48 0.44 0.45 0.34 0.33 | 2/18 (3.06) |
| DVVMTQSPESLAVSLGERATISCKSSQSELTESRNKNSVAWYQQKAGQPPKLLIYDASTRESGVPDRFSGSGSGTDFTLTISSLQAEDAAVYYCQQYHRLPLSFGGGTKVEIK | 0.43 -0.06 0.15 0.16 0.02 0.48 | 2/18 (2.67) |
| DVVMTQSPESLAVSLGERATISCKSGQGGLYESRNKNHVAWYQQKAGQPPKLLIYGASTRESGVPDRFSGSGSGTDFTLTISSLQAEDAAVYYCQQYHRLPLSFGGGTKVEIK | 1.23 1.28 0.21 1.08 0.83 1.21 | 0/18 |
| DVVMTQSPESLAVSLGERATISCKSSPSVPYESRNKNSVAWYQQKAGQPPKLLIYNASTREEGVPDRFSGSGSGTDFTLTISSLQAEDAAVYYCQQYHRLPLSFGGGTKVEIK | -0.01 0.22 0.11 0.13 0.13 0.34 | 0/18 |
| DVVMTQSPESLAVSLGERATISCHSSPSVLMESRNKNSVAWYQQKAGQPPKLLIYDASTRESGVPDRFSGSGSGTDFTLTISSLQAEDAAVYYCQQYHRLPLSFGGGTKVEIK | -0.07 -0.12 -0.37 -0.25 -0.34 -0.13 | 0/18 |
| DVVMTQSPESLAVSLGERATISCHSSPSVQYESRNKNSVAWYQQKAGQPPKLLIYNASTRESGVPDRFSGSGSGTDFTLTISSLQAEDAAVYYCQQYHRLPLSFGGGTKVEIK | 0.08 -0.12 -0.03 -0.20 -0.22 -0.08 | 1/18 (2.88) |
| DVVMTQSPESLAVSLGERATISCKFSQSVLYESRTYNSVAWYQQKAGQPPKLLIYNASTREYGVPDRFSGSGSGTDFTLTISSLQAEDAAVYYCQQYHRLPLSFGGGTKVEIK | 0.20 -0.09 0.41 0.02 -0.18 0.29 | 2/18 (2.15) |
| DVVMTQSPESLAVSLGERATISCKYSQSWIYESRNKNSVAWYQQKAGQPPKLLIYGASTRESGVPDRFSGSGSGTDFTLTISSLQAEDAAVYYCQQYHRLPLSFGGGTKVEIK | -0.30 -0.40 -0.44 -0.55 -0.64 -0.17 | 1/18 (2.24) |
| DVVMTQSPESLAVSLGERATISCKSLQSQLYESRNKNSVAWYQQKAGQPPKLLIYHASTREDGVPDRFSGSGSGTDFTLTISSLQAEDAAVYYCQLYHRLPLSFGGGTKVEIK | 1.00 0.56 0.51 1.49 1.16 0.78 | 1/18 (2.50) |
| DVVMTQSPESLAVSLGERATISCKSSQSVDDESRNKNSVAWYQQKAGQPPKLLIYDASTRESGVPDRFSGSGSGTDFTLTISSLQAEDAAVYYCQQYHRLPLSFGGGTKVEIK | -0.22 -0.25 -0.49 -0.35 -0.72 -0.29 | 0/18 |
| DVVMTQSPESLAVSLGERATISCKFSQSVLYESRDKNGVAWYQQKAGQPPKLLIYNASTRESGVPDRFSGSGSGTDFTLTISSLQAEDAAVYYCQQYHRLPLSFGGGTKVEIK | 0.23 0.10 0.01 -0.03 0.16 0.38 | 3/18 (3.32) |
| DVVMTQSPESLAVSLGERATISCKQSQSVLGESRNKNSVAWYQQKAGQPPKLLIYDASTRSSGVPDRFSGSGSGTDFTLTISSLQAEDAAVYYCQQYHRLPLSFGGGTKVEIK | 0.44 0.19 0.14 0.27 0.19 0.67 | 1/18 (1.85) |
| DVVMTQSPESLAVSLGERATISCKLQQSVLYESRNKNSVAWYQQKAGQPPKLLIYHASTREDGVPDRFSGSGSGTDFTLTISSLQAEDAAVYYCQQYHQLPLSFGGGTKVEIK | 0.47 0.27 0.40 0.34 0.71 0.48 | 2/18 (2.94) |
| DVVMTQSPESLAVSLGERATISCKVSQSVLYESGTKNSVAWYQQKAGQPPKLLIYNASLRECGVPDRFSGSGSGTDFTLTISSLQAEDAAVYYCQQYHRLPLSFGGGTKVEIK | 0.49 0.58 0.46 0.12 0.40 0.68 | 0/18 |
| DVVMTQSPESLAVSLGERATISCKQSQSVLFEPRNKNSVAWYQQKAGQPPKLLIYDASTRESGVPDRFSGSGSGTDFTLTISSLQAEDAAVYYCQQYHRLPLSFGGGTKVEIK | -0.25 -0.37 -0.31 -0.57 -0.52 -0.26 | 2/18 (4.41) |
| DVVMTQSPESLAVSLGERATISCKLRQSTLYESRQKNSVAWYQQKAGQPPKLLIYWASTRLSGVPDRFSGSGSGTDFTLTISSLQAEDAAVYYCQQYHRLPLSFGGGTKVEIK | 1.04 0.89 0.68 0.34 0.65 1.05 | 0/18 |
| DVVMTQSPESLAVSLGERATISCKSSQSQLYESRWKNSVAWYQQKAGQPPKLLIYGASQRESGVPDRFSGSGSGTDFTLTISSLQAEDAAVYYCQQYHRLPLSFGGGTKVEIK | 0.65 0.80 1.00 0.48 0.94 0.88 | 0/18 |
| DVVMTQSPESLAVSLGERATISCKLRQSTLYESRNPNSVAWYQQKAGQPPKLLIYTASTRESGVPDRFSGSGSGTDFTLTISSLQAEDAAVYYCQQYHRLPLSFGGGTKVEIK | -0.07 0.06 -0.20 0.06 -0.09 0.02 | 0/18 |
| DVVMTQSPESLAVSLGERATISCKLRQETLYESRNKNSVAWYQQKAGQPPKLLIYSASTRESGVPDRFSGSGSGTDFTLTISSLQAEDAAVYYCQQYHRLPLSFGGGTKVEIK | 0.02 -0.49 -0.23 -0.15 -0.23 0.02 | 0/18 |
| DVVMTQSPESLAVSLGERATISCKSSQSVMMESRNKNSVAWYQQKAGQPPKLLIYDASTRESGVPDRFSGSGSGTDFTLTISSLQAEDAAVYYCQQYHRLPLSFGGGTKVEIK | 0.24 0.12 0.01 0.07 0.02 0.24 | 3/18 (2.83) |

Excerpt, the first 4 entries:

| VL | log10 Kd (nM) by replicate | empty controls |
|---|---|---|
| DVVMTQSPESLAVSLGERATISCKIPQGVPYESRNKNSVAWYQQKAGQPPKLLIYGASVRESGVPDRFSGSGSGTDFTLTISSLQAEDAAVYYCQQYHRLPLSFGGGTKVEIK | 0.25 -0.10 -0.02 -0.26 0.12 0.06 | 1/18 (3.05) |
| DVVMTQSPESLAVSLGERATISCHLSDSVLYESRNKNSVAWYQQKAGQPPKLLIYNASTRESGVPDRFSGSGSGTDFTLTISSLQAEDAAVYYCQQYHRLPLSFGGGTKVEIK | -0.21 -0.42 -0.42 -0.67 -0.36 -0.25 | 3/18 (3.04) |
| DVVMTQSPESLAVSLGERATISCKFSQSVLFQSRNKNSVAWYQQKAGQPPKLLIYDASTRESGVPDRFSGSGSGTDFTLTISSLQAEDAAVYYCQQYHRLPLSFGGGTKVEIK | -0.15 -0.30 -0.28 -0.24 -0.30 -0.17 | 0/18 |
| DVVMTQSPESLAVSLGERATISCKSSGSYHYESRNKNSVAWYQQKAGQPPKLLIYGASTRESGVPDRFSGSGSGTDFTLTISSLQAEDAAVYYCQQYHRLPLSFGGGTKVEIK | 0.15 0.15 -0.05 -0.14 0.05 0.27 | 1/18 (2.97) |

Reference: Li et al. 2023, doi:10.1038/s41467-023-39022-2. File: FLAb, binding data.